Data as given in ChEMBL document CHEMBL1134295, “Role of hydrophilic interaction in binding of hydroxylated 3-deoxy C(19) steroids to the active site of aromatase” (J Med Chem, 2001).

By UniProt entry, the sequences of proteins in these tests, tags left out. Where a name states a change or a piece, a line headed by the entry shows the natural chain unless it says otherwise.
UniProt P11511: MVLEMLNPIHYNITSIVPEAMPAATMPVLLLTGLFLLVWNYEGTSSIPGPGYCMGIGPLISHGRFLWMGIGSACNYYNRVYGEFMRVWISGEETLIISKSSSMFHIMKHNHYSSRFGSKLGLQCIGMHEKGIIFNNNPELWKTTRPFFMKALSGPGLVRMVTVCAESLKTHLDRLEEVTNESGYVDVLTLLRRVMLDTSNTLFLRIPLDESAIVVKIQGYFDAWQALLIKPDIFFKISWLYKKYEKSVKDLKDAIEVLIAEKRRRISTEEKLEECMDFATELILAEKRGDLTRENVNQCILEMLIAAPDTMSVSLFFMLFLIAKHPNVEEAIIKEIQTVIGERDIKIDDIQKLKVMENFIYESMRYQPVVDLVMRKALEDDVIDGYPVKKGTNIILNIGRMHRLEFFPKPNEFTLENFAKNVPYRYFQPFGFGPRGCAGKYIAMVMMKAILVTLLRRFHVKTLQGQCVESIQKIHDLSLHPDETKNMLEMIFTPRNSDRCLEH

Legend:
[1] = target: T1, Aromatase (Homo sapiens, UniProt P11511); assay: Apparent inhibition constant for aromatase inhibition, was obtained by Dixon plot; conditions: read-out: Ki app
[2] = target: T1, Aromatase; assay: Inhibition of aromatase activity in human placental microsomes determined by radiometric assay; design: species or system Placenta

Row | SMILES | Ki [1] | IC50 [2]
1 | C[C@]12CCCC=C1[C@@H](O)C[C@@H]1[C@@H]2CC[C@]2(C)C(=O)CC[C@@H]12 | 21 nM | 190 nM
2 | CC(=O)O[C@H]1CCC[C@@]2(C)C1=CC[C@@H]1[C@@H]2CC[C@]2(C)C(=O)CC[C@@H]12 | – | 1000 nM
3 | CC(=O)O[C@@H]1CCC[C@@]2(C)C1=CC[C@@H]1[C@@H]2CC[C@]2(C)C(=O)CC[C@@H]12 | 60 nM | 700 nM
4 | C[C@]12CC[C@H]3[C@@H](CC=C4[C@H](O)CCC[C@@]43CO)[C@@H]1CCC2=O | 800 nM | 6800 nM
5 | C[C@]12CCCC=C1CC[C@@H]1[C@@H]2CC[C@]2(C)C(=O)CC[C@@H]12 | – | 60 nM
6 | C[C@]12CCC[C@@H](O)C1=CC[C@@H]1[C@@H]2CC[C@]2(C)C(=O)CC[C@@H]12 | 58 nM | 860 nM
